{"source": "PubChem BioAssay AID463212", "about": "(Sanford-Burnham Center for Chemical Genomics, 2010)", "note": "The entries are a selection whose mix differs from that of the whole data set. Some of these compounds have results that are not shown, active ones among them. The source made the active and inactive calls.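 How the source made its calls: active means growth inhibition of the mutant yeast at or above 50%; inactive means the rest.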"}
{"assay": "growth inhibition of tim23-1 ts yeast – luminescence, uHTS, primary screen (AID 463212);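 further: temperature-sensitive mutant grown at 25 °C; plate controls were DMSO-treated mutant yeast for no effect and medium wells lacking yeast for full effect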", "settings": "S. cerevisiae tim23-1 growth, BacTiter-Glo luminescence, 24 h; at 20 µM; active compounds read high"}
{"compound": "O=C(OC1CN2CCC1CC2)C(CO)(c1ccccc1)c1ccccc1", "note": "(centres undefined)", "inhibition": "inactive: -2.77%"}
{"compound": "COc1ccc(Br)c(C(=O)NCC2(N3CCCCC3)CCCCC2)c1", "inhibition": "inactive: 23.1%"}
{"compound": "CC(C)Oc1ccc(C(=O)NCC2(N(C)C)CCCCC2)cc1", "inhibition": "inactive: 11.5%"}
{"compound": "CN(C)c1cccc(C(=O)NCC2(N(C)C)CCCCC2)c1", "inhibition": "inactive: 5.42%"}
{"compound": "CN(C)C1(CNC(=O)c2ccc(Br)cc2)CCCCC1", "inhibition": "inactive: 10.5%"}
{"compound": "COc1cc(C(=O)NCC2(N(C)C)CCCCC2)c([N+](=O)[O-])cc1OC", "inhibition": "inactive: 11.2%"}
{"compound": "COc1ccc(Cl)cc1C(=O)NCC1(N(C)C)CCCCC1", "inhibition": "inactive: 4.15%"}
{"compound": "COc1cccc(C(=O)NCC2(N3CCCCC3)CCCCC2)c1", "inhibition": "inactive: 8.93%"}
{"compound": "O=C(NCC1(N2CCCCC2)CCCCC1)c1cccc(Cl)c1", "inhibition": "inactive: -5%"}
{"compound": "CN(C)C1CCCC1OC(=O)C(O)(c1ccccc1)c1ccccc1", "note": "(centres undefined)", "inhibition": "inactive: 14.3%"}
{"compound": "CN(C)c1ccc(C(=O)NCC2(N(C)C)CCCCC2)cc1", "inhibition": "inactive: 0.6%"}
{"compound": "Cc1ccccc1C(=O)NCC1(N2CCCCC2)CCCCC1", "inhibition": "inactive: 25.6%"}
{"compound": "O=C(NCC1(N2CCCCC2)CCCCC1)c1cc(F)c(F)cc1Cl", "inhibition": "inactive: -6.48%"}
{"compound": "C=CCN1CCN(CCOC(=O)C(O)(c2ccccc2)c2ccccc2)CC1", "inhibition": "inactive: 4.44%"}
{"compound": "COc1ccc(C(=O)NCC2(N(C)C)CCCCC2)cc1", "inhibition": "inactive: 5.32%"}
{"compound": "O=C(NCC1(N2CCCCC2)CCCCC1)c1cccc(Br)c1", "inhibition": "inactive: 1.07%"}
{"compound": "Cc1cc(C(=O)NCC2(N3CCCCC3)CCCCC2)ccc1[N+](=O)[O-]", "inhibition": "inactive: 24.6%"}
{"compound": "CCN1CCCC(OC(=O)C2(O)c3ccccc3C=Cc3ccccc32)C1", "note": "(centres undefined)", "inhibition": "inactive: 18.4%"}
{"compound": "O=C(NCC1(N2CCCCC2)CCCCC1)c1cc([N+](=O)[O-])ccc1Cl", "inhibition": "inactive: 18.7%"}
{"compound": "CN1[C@@H]2CC[C@H]1CC(OC(=O)C(O)(c1ccccc1)c1ccccc1)C2", "note": "(some centres undefined)", "inhibition": "inactive: -18%"}
{"compound": "COc1cc(SC)ccc1C(=O)NCC1(N(C)C)CCCCC1", "inhibition": "inactive: -1.52%"}
{"compound": "CCN(CC)CC(C)C(C)OC(=O)C(O)(c1ccccc1)c1ccccc1", "note": "(centres undefined)", "inhibition": "inactive: 10.4%"}
{"compound": "CC(C)N1C(=O)CC2(CCN(CCOC(=O)C(O)(c3ccccc3)c3ccccc3)CC2)C1=O", "inhibition": "inactive: -20.6%"}
{"compound": "Cc1ccc(C(=O)NCC2(N3CCCCC3)CCCCC2)cc1", "inhibition": "inactive: -9.74%"}
